Amino acid sequences for entries named in this document (tags omitted).
UniProt P14842, whole entry: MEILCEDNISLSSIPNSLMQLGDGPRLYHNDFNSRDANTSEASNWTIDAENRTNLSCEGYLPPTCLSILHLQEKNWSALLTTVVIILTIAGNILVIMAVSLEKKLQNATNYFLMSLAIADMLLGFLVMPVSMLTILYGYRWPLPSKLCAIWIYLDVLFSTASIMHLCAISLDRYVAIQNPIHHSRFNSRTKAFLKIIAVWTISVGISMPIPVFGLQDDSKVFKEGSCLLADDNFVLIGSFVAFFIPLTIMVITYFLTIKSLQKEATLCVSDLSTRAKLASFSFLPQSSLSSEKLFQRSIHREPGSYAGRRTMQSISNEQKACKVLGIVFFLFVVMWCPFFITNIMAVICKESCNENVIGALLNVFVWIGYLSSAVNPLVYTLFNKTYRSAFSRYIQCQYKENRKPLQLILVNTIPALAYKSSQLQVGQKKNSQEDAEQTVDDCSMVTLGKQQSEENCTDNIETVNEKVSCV

In BindingDB's records for doi:10.1016/0024-3205(83)90740-3 (University of Toronto, 1983):

Target: 5-hydroxytryptamine receptor 2A (Rattus norvegicus, UniProt P14842)

Structure (SMILES) | Ki
O=C(CCCN1CCC2(CC1)C(=O)NCN2c1ccccc1)c1ccc(F)cc1 [8-[4-(4-fluorophenyl)-4-oxidanylidene-butyl]-1-phenyl-1,3,8-triazaspiro[4.5]decan-4-one] | 1.24 nM and 1.04 nM
COc1ccc2[nH]cc(CCN)c2c1 [tryptamine, 5-Methoxy] | 647 nM and 215 nM and 92 nM
CCN(CC)C(=O)[C@@H]1C=C2c3cccc4[nH]cc(c34)C[C@H]2N(C)C1 [(4R,7R)-N,N-diethyl-6-methyl-6,11-diazatetracyclo[7.6.1.0^{2,7}.0^{12,16}]hexadeca-1(16),2,9,12,14-pentaene-4-carboxamide] | 5.47 nM and 3.16 nM and 3.23 nM

Several values for one entry are separate records, joined by “and”; a condition that tells them apart may be missing. Equal entries are not always repeated.
